Antibody variant affinities, Ab-14 light chain, assay B

The measurements come from Li et al. 2023 (doi:10.1038/s41467-023-39022-2) through the FLAb antibody collection.

The target is the same throughout: PDVDLGDISGINAS, from the HR2 region of SARS-CoV-2 spike.

The variants keep the heavy chain, the linker and the frameworks of Ab-14 (scFv order VH, three GGGGS repeats, VL).
VH: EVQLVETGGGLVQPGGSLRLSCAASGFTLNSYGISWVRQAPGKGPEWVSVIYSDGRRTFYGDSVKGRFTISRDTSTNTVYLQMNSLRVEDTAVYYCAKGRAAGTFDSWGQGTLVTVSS
VL: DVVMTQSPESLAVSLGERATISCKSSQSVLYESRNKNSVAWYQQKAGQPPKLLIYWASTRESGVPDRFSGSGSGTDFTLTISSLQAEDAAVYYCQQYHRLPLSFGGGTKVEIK

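The parent was found by panning a naive human phage display library on the peptide. Designed CDR sequences, proposed from the first random library and measured here. Several design methods are mixed in this list. The assay is AlphaSeq: two haploid yeast populations carry antibody and antigen on their surface. After mating in shaken culture at 30 °C for 16 h, diploids were selected and their barcode pairs sequenced. Scores were corrected for input abundance and mapped to Kd with protein pairs of known affinity run in the same pool. There are six technical replicates.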

Variants are written as CDR1, CDR2 and CDR3 of the light chain (limits as in the source). Parent: KSSQSVLYESRNKNSVA, WASTRES, QQYHRLPLS.
This list holds designs with at most six substitutions.
Kd is apparent (estimated from mating counts) and averaged on the log scale over replicates with a signal. Smaller is tighter.
An entry "nd" has no value in the source: the pair was not observed among the diploids in any replicate. This suggests poor binding but is not conclusive.
The authors averaged sequences with at least three values out of six and counted those with two or fewer as poor binders.
Of ten entries with the parent sequence, four were seen in most replicates (averages 2.2 nM to 240 nM), three in one and three in none, so single entries are noisy.
Nonspecific signal, from three strains lacking the peptide, appeared in 4% of pairings of all light chain designs, centred on 430 nM (5% of these signals below 38 nM); values are not corrected for it.
A sequence measured in both rounds can read differently, since the two assays cover different ranges.

- KMSQSVLYESRNKNSVA / WASTRES / QQYHRLPLE = 4.9 nM (6 of 6 replicates)
- KSSQSVCYESRNKNSVA / WASTRES / QQYFVLPLS = 59 nM (1 of 6 replicates)
- KSSQSWLKESRNKNSVA / GASTRQS / QQYHRLPLS = 720 pM (6 of 6 replicates)
- KSLQSGLYESRNKNSVA / HASTRED / QLYHRLPLS = 2.7 nM (6 of 6 replicates)
- KLSQSQLYESRNKNSVA / NASTRES / QQYHRLPLS = 620 pM (6 of 6 replicates)
- KVSQSVLYESANKNSVA / WASERET / QQYFRLPLS = 2.5 nM (6 of 6 replicates)
- KVSQSFLYEDRNKNSVA / NASQRES / QQYHRLPLS = 730 pM (6 of 6 replicates)
- KLSQSVMYESRNPNSVA / NASTRMS / QQYHRLPLS = 890 pM (6 of 6 replicates)
- KVSQSVLYESRLKNSVA / DASTRES / QQYHRLPLS = 840 pM (6 of 6 replicates)
- QSSQSVLYESRNKNSVA / WASLRES / QQYHRLPLS = nd (0 of 6 replicates)
- HSSPSEEYESRNKNSVA / NASTRES / QQYHRLPLS = 1.9 nM (6 of 6 replicates)
- KISQSVLYESRNKNSVA / EAATREG / QQYHRLPLI = 1.7 nM (6 of 6 replicates)
- KSSISWLYESRNKNSVA / EASTRES / QQYHRLPLS = 950 pM (6 of 6 replicates)
- KSSQSVLSEERNKNSVA / QASTRES / QQYHRLPLS = 500 pM (6 of 6 replicates)
- KFMQSVLYESRNKNSVA / NASQRES / QQYHRLPLS = 800 pM (6 of 6 replicates)
- KSSQSVLGEQRNKNSVA / DISTRES / QQYHRLPLS = 1.9 nM (6 of 6 replicates)
- KSSQSVLYESRNKNSVA / YASTNES / QQYHKLPLS = nd (0 of 6 replicates)
- KSSGSQLYEDRNKNSVA / SATQRES / QQYHRLPLS = 1.3 nM (6 of 6 replicates)
- KLSQSDDYESRNKNSVA / EASTRES / QQYHRLPLS = 1.4 nM (6 of 6 replicates)
- KFSQSGLYESRNKNSVA / NASTRES / QQYHRLPLS = 2.0 nM (6 of 6 replicates)
- KMSQSVLMESRNANSVA / DASTRES / QQYHRLPLS = 750 pM (6 of 6 replicates)
- KMQQSELYESRNKNSVA / NASQRES / QQYHRLPLS = 6.1 nM (6 of 6 replicates)
- KSGQGVLYESRNKFSVA / GASTRES / QQYHRLPLS = 9.6 nM (1 of 6 replicates)
- KSSQQVLTESRNKNSVA / EAGTRES / QQYHRLPLS = 16 nM (6 of 6 replicates)
- KVSQSVLYESRNKNSVA / QASTRES / QQYHRLPLQ = 490 pM (6 of 6 replicates)
- KSSQSFLYEERNKNSVA / QAYNRES / QQYHRLPLS = 870 pM (6 of 6 replicates)
- KSSQSVLEESRNKNSVA / WASMRES / QQYHRLPLS = 14 nM (6 of 6 replicates)
- KSSQSVLGQSRNKNSVA / DASTRES / QQYHRLPLS = 1.5 nM (6 of 6 replicates)
- KLSQSVPYESRNKNSVA / NASTRMQ / QQYHRLPLS = 3.5 nM (6 of 6 replicates)
- KSSQSWLYESRNKNSVA / AASTRES / QQYHRLPLS = 1.4 nM (6 of 6 replicates)
- KLSGSVLYESRNKNSVA / NASTREQ / QQYHRLPLS = 640 pM (6 of 6 replicates)
- KSSKSVLFESRNKNSVA / NASTRET / QQYHRLPLS = nd (0 of 6 replicates)
- KSSQSVLYESENKNSVA / RASTRNS / QQYHRLPLS = 12 nM (6 of 6 replicates)
- KLSQSWLYESRNKNSVA / NASTRMS / QQYHRLPLS = 1.0 nM (6 of 6 replicates)
- KIMQSQLGESRNVNSVA / NASTRES / QQYHRLPLS = 1.4 nM (6 of 6 replicates)
- KSSQSVYYESRNKNSVA / HASTREQ / QQYHRLPLS = 86 nM (6 of 6 replicates)
- MSSQSVLYESRNKNSVA / FASTREL / QQYHRLPLA = nd (0 of 6 replicates)
- KLSQSFLYEDRNKNSVA / NASQRES / QQYHRLPLS = 2.3 nM (6 of 6 replicates)
- KLSQSTLYESRNKNSVA / KASTRES / QQYHRPPLS = nd (0 of 6 replicates)
- KSSQSDCYESRNRNSVA / YASTRES / QQYHRMPNS = nd (0 of 6 replicates)
- KQSQVYLYESRNKNSVA / GASTRES / QQYHRLPLS = 880 pM (6 of 6 replicates)
- KVYQSYLYESRNKNSVA / QASTRES / QQYHRLPLS = 1.1 nM (6 of 6 replicates)
- KSSQSVDYESRNKNSVA / NASTRES / QQYHRLPLS = 2.1 nM (6 of 6 replicates)
- KSSPVVLYESENKNSVA / NASTRMS / QQYHRLPLS = 2.6 nM (6 of 6 replicates)